Tests used:
c-Kit (V560G) = c-Kit (V560G) (Homo sapiens (Human), UniProt P10721, V560G); test: biochemical
PKCzeta = PKCzeta (Homo sapiens (Human), UniProt Q05513); test: Kinase profiling; type: biochemical
U2OS osteosarcoma cells = test: Induction of apoptosis in U2OS cells (Caspase Glo, Cell Titer Blue); type: cell-based; settings: 24 hours, FIG. 3
Protocol: U2OS cells were treated with increasing concentrations of the compound for 24 hours. Cell viability was measured by incubating cells with Cell Titer Blue reagent at 37° C. for 3 hours under 5% CO2. Thereafter the cells were incubated with Caspase Glo reagent for 1 hour at room temperature to assay induction of Caspase 3/7 activity.
Cell viability was measured by incubating cells with Cell Titer Blue reagent (Promega) at 37° C. for 3 hours under 5% CO2. Thereafter the cells were incubated with Caspase Glo reagent (Promega) for 1 hour at room temperature to assay induction of Caspase 3/7 activity.

Amino acid sequences for entries named in this document (tags omitted). A change or cut given only in a name is not applied to a line headed by its entry. Residues count along the entry.
UniProt P10721, 26-976 V560G: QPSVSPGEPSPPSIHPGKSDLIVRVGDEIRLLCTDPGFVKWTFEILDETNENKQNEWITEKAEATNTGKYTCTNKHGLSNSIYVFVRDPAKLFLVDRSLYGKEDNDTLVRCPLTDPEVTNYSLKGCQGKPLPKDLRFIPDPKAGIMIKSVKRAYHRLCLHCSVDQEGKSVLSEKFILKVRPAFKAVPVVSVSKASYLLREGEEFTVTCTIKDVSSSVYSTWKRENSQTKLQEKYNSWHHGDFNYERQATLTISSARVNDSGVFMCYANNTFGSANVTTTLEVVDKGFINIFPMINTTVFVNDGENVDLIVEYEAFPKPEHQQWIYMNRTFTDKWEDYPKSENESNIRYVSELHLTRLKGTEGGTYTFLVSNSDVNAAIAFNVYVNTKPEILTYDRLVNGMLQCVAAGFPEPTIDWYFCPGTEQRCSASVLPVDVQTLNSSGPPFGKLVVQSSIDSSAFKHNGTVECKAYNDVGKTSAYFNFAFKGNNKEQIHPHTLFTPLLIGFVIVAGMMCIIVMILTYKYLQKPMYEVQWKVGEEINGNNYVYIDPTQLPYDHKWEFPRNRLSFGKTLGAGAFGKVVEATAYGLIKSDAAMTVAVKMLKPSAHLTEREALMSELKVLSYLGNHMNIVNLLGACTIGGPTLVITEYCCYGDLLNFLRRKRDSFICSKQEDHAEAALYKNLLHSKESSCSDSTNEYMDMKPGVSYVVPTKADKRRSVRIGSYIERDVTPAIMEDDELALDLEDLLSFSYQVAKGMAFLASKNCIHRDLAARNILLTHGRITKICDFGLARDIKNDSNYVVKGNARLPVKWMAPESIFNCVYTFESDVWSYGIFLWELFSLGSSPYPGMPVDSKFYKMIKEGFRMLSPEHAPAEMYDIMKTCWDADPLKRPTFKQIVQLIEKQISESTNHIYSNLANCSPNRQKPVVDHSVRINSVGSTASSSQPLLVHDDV
UniProt Q05513: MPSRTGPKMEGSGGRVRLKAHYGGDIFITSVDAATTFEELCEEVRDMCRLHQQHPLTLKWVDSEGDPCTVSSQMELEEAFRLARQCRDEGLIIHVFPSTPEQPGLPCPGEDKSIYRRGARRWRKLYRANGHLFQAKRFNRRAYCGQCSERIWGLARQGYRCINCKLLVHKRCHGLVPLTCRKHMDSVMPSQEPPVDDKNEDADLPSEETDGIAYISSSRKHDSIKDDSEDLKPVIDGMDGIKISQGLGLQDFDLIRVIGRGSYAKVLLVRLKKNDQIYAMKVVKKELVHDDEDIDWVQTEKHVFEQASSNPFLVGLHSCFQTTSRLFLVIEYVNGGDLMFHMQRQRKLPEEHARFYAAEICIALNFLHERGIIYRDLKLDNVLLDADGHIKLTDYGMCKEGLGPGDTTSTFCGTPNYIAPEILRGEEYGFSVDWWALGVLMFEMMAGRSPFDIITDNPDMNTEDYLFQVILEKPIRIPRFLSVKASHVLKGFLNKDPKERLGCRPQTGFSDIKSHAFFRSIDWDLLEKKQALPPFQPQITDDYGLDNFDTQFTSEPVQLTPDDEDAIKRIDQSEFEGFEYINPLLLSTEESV
UniProt P53350, whole entry: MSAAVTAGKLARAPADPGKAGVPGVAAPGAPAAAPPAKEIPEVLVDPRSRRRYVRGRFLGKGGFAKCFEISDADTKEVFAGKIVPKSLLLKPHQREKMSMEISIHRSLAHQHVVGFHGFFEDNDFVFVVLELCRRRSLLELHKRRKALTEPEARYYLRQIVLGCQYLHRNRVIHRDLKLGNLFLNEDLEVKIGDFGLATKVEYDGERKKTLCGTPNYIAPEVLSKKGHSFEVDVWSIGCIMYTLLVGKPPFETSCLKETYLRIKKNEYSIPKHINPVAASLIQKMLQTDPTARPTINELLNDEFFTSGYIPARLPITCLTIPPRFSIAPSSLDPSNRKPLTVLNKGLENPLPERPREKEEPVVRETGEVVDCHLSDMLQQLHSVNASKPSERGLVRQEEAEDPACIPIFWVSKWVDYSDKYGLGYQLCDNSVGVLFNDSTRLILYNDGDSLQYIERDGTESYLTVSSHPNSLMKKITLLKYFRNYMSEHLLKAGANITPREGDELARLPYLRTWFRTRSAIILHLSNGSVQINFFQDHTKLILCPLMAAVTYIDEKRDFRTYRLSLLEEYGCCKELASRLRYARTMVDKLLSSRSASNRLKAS

PLK1 = PLK1 (Homo sapiens (Human), UniProt P53350); test: Kinase profiling; type: biochemical

SMILES: Cn1c(=O)c(S(=O)(=O)c2ccc(F)cc2F)cc2cnc(Nc3ccc4[nH]ccc4c3)nc21 [Example 39, 2-(1H-indol-5-ylamino)-6-(2,4-difluorophenylsulfonyl)-8-methylpyrido[2,3-d]pyrimidin-7(8H)-one]
- IC50 (c-Kit (V560G)): 6.15 µM
- IC50 (PKCzeta): > 10 µM
- induction of caspase 3/7 activity (U2OS osteosarcoma cells): induction of caspase 3/7 activity in a dose dependant manner
- IC50 (PLK1): 7.82 µM

From patent US8889696B2, “Substituted pyrido[2,3-d]pyrimidin-7(8H)-ones and therapeutic uses thereof” (Temple University—Of The Commonwealth System Of Higher …, priority 2009, dated 2014)
